According to PMC11779861 (Scientific Reports, 2025):

Tested on: Human Induced Pluripotent Stem Cell (hiPSC)-Derived Cardiomyocytes
Conditions: 3 nM

CN(CCOc1ccc(NS(C)(=O)=O)cc1)CCc1ccc(NS(C)(=O)=O)cc1 [Dofetilide]
early after depolarization (EAD) events (30 min): 5/8
early after depolarization (EAD) events (24 h): 8/8
depolarization (EAD) events (48 h): 1/8

Like-named read-outs stand apart in the source and are kept apart here.
